{"sequences": {"note": "Amino acid sequences for entries named in this document (tags omitted). Residues count along the entry.", "UniProt P28335, 33-458": "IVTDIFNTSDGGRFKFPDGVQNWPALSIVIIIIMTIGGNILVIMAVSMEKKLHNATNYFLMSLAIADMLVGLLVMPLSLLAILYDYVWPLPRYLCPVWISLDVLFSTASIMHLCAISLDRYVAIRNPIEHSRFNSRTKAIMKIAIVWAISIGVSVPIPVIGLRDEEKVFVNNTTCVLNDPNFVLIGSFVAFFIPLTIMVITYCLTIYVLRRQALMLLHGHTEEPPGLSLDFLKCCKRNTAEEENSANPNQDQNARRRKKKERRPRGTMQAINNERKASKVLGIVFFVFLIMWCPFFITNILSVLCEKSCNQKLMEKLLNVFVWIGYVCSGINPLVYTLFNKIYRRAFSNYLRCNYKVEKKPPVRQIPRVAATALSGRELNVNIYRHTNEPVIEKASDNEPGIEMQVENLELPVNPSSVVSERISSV"}, "source": "patent US7071185B2", "about": "“1,2,3,4,7,8-hexahydro-6H-[1,4]diazepino[6,7,1-ij]quinoline derivatives as antipsychotic and antiobesity agents” (Wyeth, priority 2002, dated 2006)", "key": {"human 5-HT2C receptor": {"biological_target": "T1, human 5-HT2C receptor (Homo sapiens, UniProt P28335)", "T1 construct": "expressed in transfected cells", "test": "Calcium mobilization in response to 5-HT2C receptor agonists (FLIPR)", "assay_type": "cell-based", "settings": "CHO cells stably expressing human 5-HT2C receptor, Fluo-3 calcium; read-out: EC50, reference compounds"}, "[1]": {"biological_target": "T2, human 5-hydroxytryptamine2C (h5HT2C) receptor (Homo sapiens, UniProt P28335)", "T2 construct": "expressed in transfected cells; host or cells: CHO (Chinese Hamster Ovary) cells; membrane preparation", "test": "5HT2C receptor binding ([125I]DOI displacement, CHO cell membranes)", "settings": "[125I]DOI binding, CHO membranes expressing h5HT2C; read-out: Ki (95% confidence interval), reference compounds"}}, "data": [{"smiles": "Clc1cccc(N2CCNCC2)c1", "note": "[mCPP, meta-chlorophenylpiperazine, reference compound]", "values": [{"measurement": "EC50", "setting": "human 5-HT2C receptor", "value": 5.4, "unit": "nM"}, {"measurement": "Ki", "setting": "[1]", "value": 6.5, "unit": "nM"}]}]}
